Results: patent US20220242846A1, “ISOINDOLINONE COMPOUNDS” (Monte Rosa Therapeutics AG, priority 2019, published 2022)

The chains behind the UniProt entries cited, without tags or fusion partners. Residues count along the entry.
UniProt P15170, whole entry: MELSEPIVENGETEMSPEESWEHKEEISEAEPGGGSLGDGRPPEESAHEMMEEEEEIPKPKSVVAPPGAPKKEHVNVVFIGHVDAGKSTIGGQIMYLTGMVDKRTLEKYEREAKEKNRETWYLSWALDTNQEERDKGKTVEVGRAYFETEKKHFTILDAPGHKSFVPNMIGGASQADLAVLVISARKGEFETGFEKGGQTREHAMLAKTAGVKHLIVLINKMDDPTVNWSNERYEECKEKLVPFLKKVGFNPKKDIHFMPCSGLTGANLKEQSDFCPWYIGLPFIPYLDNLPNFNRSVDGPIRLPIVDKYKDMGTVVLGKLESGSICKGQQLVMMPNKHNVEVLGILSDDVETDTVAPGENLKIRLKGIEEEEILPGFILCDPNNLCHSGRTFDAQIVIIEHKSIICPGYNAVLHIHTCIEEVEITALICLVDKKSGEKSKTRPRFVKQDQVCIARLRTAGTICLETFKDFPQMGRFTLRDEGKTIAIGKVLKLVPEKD
UniProt Q96SW2, whole entry: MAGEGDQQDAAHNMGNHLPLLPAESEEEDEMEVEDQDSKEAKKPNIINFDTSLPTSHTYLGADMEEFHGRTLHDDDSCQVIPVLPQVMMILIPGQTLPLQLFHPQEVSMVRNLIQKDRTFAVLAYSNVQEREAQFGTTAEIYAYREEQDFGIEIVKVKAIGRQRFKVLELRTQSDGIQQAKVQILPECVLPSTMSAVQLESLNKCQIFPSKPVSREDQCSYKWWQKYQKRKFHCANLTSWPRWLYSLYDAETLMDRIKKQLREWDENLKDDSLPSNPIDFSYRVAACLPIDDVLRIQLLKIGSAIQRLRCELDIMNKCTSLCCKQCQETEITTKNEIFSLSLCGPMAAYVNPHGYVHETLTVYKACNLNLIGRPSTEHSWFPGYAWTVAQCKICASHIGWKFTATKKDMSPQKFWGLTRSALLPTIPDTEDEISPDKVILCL
UniProt Q13422, whole entry: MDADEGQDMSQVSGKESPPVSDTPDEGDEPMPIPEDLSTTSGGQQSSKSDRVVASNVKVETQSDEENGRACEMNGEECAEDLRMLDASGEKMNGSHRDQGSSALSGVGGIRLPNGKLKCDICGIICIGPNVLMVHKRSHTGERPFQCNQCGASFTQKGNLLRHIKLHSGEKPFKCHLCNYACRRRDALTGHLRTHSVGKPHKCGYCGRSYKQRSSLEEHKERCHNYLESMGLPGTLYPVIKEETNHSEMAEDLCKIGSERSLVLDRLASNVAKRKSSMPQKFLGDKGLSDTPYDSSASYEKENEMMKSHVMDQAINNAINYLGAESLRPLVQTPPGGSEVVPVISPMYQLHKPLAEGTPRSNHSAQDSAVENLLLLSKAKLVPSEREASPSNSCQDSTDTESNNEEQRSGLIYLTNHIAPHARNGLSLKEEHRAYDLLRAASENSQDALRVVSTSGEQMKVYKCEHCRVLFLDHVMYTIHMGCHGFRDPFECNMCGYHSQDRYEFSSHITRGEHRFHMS
UniProt Q96JP5, 2-570 limits assumed: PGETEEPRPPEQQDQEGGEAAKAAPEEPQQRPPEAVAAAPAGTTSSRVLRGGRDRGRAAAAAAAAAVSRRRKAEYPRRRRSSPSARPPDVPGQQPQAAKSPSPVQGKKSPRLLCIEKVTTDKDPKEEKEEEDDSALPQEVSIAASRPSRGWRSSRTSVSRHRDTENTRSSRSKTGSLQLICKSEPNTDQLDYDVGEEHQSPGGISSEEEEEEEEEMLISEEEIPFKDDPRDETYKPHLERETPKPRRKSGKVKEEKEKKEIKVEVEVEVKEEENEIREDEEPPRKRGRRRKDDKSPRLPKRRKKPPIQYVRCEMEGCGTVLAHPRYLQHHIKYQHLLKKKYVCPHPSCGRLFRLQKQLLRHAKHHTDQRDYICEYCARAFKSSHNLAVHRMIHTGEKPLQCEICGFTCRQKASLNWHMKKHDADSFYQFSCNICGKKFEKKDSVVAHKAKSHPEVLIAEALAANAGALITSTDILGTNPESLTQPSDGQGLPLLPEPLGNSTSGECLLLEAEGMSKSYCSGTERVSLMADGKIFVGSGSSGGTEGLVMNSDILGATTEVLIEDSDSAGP
UniProt Q9UKT9, whole entry: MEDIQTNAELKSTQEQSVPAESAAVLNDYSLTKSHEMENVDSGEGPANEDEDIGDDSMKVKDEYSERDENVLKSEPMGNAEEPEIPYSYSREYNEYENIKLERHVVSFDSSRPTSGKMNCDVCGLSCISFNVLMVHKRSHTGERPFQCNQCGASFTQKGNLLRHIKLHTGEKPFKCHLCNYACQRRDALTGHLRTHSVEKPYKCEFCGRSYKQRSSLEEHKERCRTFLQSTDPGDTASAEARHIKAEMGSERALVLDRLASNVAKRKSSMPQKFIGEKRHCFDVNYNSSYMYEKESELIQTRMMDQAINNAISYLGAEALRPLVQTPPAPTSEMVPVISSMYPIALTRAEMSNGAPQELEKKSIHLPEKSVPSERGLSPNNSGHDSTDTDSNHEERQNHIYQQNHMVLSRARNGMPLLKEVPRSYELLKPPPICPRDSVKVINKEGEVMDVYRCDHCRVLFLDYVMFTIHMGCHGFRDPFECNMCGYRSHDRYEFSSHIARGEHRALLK
UniProt P48729, whole entry: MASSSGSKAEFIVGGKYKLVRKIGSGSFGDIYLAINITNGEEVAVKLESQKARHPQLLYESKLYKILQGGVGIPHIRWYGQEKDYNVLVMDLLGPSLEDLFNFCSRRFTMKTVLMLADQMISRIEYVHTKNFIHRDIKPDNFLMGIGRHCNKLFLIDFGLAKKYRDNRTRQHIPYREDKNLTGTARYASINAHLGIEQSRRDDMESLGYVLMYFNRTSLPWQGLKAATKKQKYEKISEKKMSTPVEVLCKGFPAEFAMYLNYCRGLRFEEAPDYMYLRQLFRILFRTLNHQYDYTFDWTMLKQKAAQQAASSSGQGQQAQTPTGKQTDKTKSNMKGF
UniProt Q16531, 2-1140 partner limits assumed: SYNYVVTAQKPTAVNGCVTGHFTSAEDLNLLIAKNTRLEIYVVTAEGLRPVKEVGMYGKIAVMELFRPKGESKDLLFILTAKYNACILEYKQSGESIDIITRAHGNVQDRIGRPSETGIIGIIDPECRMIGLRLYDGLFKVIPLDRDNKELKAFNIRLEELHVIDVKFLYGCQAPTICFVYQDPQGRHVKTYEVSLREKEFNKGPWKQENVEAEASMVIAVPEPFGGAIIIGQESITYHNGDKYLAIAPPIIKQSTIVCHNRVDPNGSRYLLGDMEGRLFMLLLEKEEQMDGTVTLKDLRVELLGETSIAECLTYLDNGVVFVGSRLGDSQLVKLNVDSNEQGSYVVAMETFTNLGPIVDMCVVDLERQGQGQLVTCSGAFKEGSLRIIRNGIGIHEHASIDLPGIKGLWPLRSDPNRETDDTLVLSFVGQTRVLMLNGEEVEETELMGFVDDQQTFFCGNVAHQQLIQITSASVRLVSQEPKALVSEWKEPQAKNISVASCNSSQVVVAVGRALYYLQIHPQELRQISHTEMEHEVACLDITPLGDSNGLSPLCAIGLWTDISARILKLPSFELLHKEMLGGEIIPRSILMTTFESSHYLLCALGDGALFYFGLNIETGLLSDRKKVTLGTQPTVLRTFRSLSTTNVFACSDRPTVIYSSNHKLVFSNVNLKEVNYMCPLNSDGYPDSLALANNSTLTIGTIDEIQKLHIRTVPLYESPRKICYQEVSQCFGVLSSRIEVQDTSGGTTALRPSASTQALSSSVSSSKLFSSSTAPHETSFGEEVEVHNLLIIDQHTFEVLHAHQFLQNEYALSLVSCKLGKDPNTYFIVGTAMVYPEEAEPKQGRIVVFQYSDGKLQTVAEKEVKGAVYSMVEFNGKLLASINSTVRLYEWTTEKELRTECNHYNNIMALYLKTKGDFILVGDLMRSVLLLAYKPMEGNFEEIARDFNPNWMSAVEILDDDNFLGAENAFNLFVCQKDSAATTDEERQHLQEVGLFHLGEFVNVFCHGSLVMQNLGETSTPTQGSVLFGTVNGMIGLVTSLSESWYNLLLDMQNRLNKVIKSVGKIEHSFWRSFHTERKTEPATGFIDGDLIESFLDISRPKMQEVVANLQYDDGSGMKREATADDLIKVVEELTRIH

How the values were obtained:
GSPT1 [1] = target: T1, GSPT1 (Homo sapiens, UniProt P15170+Q96SW2); assay: Immunofluorescence assay for GSPT1 degradation in CAL-51 cells; format: cell-based; details: read-out: Code: activity for GSPT1 degradation (DC50), compound treatment 6 hours
Experimental: CAL-51 cells were purchased from DSMZ (cat. Number ACC302), sub-cultured in 90% Dulbecco's MEM (4.5 g/L glucose, Gibco 11965) +10% heat inactivated FBS (BioConcept, 2-01F136I) and incubated at 37° C., 5% CO2. For the assay, imaging microtiterplate Cell Carrier 96 Ultra (Perkin Elmer 6055302) were pre-coated with Fibronectin (Sigma F085, 300 at 0.2 μg/ml) in PBS (1000, Gibco 14190) for 45 min at room temperature, rinsed with PBS and CAL-51 cells (30K cells/well) were plated and let to adhere overnight. Cells were treated with compounds typically using a serial dilution ranging from 30 μM to 0.1 nM for 6 hours. Compounds were stored at 10 mM DMSO stocks. Vehicle (DMSO), positive (CC-885, 10 μM) and rescue controls (positive control plus 0.2 μM bortezomib) were also included at this stage. Cells were subsequently rinsed with PBS and fixed in 10% Formalin solution (50 μl, Sigma HT5011)) for 20 mins at room temperature. Following three consecutive PBS washes (100 μl), cells were permeabilized in 0.1% Triton X-100 in PBS (Sigma 93443, 50 μl) for 15 mins at room temperature. Following three further PBS washes, 50 μl blocking buffer (1% BSA, Sigma A4503, in PBS) was added for 45 min for signal-to-noise reduction. Primary antibody (human GSPT1, Sigma HPA052488) was diluted in blocking buffer (dil. 1/300, 35 μl/well) and incubated with the cells overnight at 4° C. […] Fluorescence intensity of Alexa-Fluor 488 (GSPT1), Alexa-Fluor 647 (Actin) and DAPI (Nucleus) were measured. […] The outline of the cells was determined analogously from the sum of the normalized, smoothed DAPI and Actin channel, starting from each nucleus. The Alexa-Fluor 488 (GSPT1) signal intensity in each cell was finally measured, in order to obtain a Mean intensity per cell. GSPT1 degradation (DC50) was calculated after normalization to controls and data import in CDD vault Database, using non-linear regression. […]

[2] = target: Full length wild-type cereblon CRBN (Homo sapiens, UniProt Q96SW2); assay: Fluorescence polarization (FP) assay indicating cereblon binding; details: read-out: rFP IC50; CRBN 80.0 nM, fluorescent probe 5 nM, FP measured after 12 hours
IKZF1 = IKZF1 (Homo sapiens, UniProt Q13422); assay: Selectivity determination by Western Blot assay in MM1S cells: IKZF1; details: MM1S cells, 0.3, 3 and 30 μM, 6 hours
ZFP91 = ZFP91 (Homo sapiens, UniProt Q96JP5); assay: Selectivity determination by Western Blot assay in MM1S cells: ZFP91; details: MM1S cells, 0.3, 3 and 30 μM, 6 hours
IKZF3 = IKZF3 (Homo sapiens, UniProt Q9UKT9); assay: Selectivity determination by Western Blot assay in MM1S cells: IKZF3; details: MM1S cells, 0.3, 3 and 30 μM, 6 hours
CK1alpha = CK1alpha (Homo sapiens, UniProt P48729); assay: Selectivity determination by Western Blot assay in MM1S cells: CK1alpha; details: MM1S cells, 0.3, 3 and 30 μM, 6 hours
GSPT1 [3] = target: T1, GSPT1; assay: Selectivity determination by Western Blot assay in MM1S cells: GSPT1; details: MM1S cells, 0.3, 3 and 30 μM, 6 hours

Row | Compound | DC50 (GSPT1 [1]) [nM] | IC50 [2] [nM] | IKZF1 degradation code (IKZF1) | ZFP91 degradation code (ZFP91) | IKZF3 degradation code (IKZF3) | CK1alpha degradation code (CK1alpha) | GSPT1 degradation code (GSPT1 [3])
1 | Cc1c(Cl)cc(NC(=O)NCc2ccc3c(c2)C(=O)N(C2CCC(=O)NC2=O)C3)cc1CC1COCCN1C (stereo not drawn) | < 100 |  |  |  |  |  | 
2 | Cc1c(Cl)cc(NC(=O)NCc2ccc3c(c2)C(=O)N(C2CCC(=O)NC2=O)C3)cc1CN1CC2CC1CO2 (stereo not drawn) | < 100 | 1020 |  |  |  |  | 
3 | Cc1c(Cl)cc(NC(=O)NCc2ccc3c(c2)C(=O)N(C2CCC(=O)NC2=O)C3)cc1CN1C2CCC1COC2 (stereo not drawn) | < 100 |  | C (C represents weak degradation at 30 μM (below 50%)) | A | B (B represents trace degradation at 30 μM (below 20%)) | A | F (F represents degradation at 0.3 μM (>90%))
